For nine molecules, IC50 results are on record in patent US20260200947A1, “FUSED CYCLIC COMPOUNDS AND USE THEREOF” (Jacobio Pharmaceuticals Co., Ltd., priority 2022, published 2026).

For experiment [1], the system named is AGS cells (K-Ras G12D).
Experiment [2] concerns AsPC-1 cells (K-Ras G12D).
For experiment [3], the system named is SW620 cells (K-Ras G12V).
Experiment [4] has as its system SW620 cells (K-Ras G12V). In words: Phospho-ERK1/2(THR202/TYR204) HTRF assay, SW620. The conditions noted are these: Homo sapiens, SW-620, 2 hours incubation, read-out: pERK, IC50, SW620. In kind it is cell-based. On the technique in general: In TR-FRET formats the signal depends on donor and acceptor labels being close together.
Experiment [5] deals with AGS cells (K-Ras G12D). The source holds these as a separate data set.

A word on the IC50: it is the concentration needed to halve the response being measured.

Read-outs that look alike come from different tables or passages of the source.

With `C#Cc1c(F)ccc2cc(N)cc(-c3nc4c5c(nc(OCC67CC(C)CN6C[C@H](F)C7)nc5c3F)N3CCCOC[C@H]3CO4)c12` (stereo partly drawn) [Compound 32], the IC50 with AGS cells (K-Ras G12D) [1] was found to be 43.1 nM.

Regarding `C#Cc1c(F)ccc2cc(O)cc(-c3nc4c5c(nc(OC[C@@]67CCCN6C[C@H](F)C7)nc5c3F)N3CCOCC3C4=C)c12` (stereo partly drawn) [Compound 12], the IC50 in the experiment with AGS cells (K-Ras G12D) [1] worked out at 94.7 nM; in experiment [2], 360 nM; with SW620 cells (K-Ras G12V) [3] it was 32.9 nM.

As to `C#Cc1c(F)ccc2cc(N)cc(-c3nc4c5c(nc(OC[C@@]67CCCN6C[C@H](F)C7)nc5c3F)N3CC(F)COC[C@H]3CO4)c12` (stereo partly drawn) [Compound 15], the IC50 worked out at 14.6 nM in the experiment on AGS cells (K-Ras G12D) [1], 620 nM in experiment [2] and 158 nM with SW620 cells (K-Ras G12V) [3].

With `CCc1c(O)c(=O)ccn1CCO` (single isomer, unassigned) [Compound 102], the IC50 in the experiment with SW620 cells (K-Ras G12V) [4] amounted to 11.4 nM; with AGS cells (K-Ras G12D) [5] it was 22.1 nM; in the experiment on AGS cells (K-Ras G12D) [1], 121 nM; in experiment [2], 274 nM; in the experiment with SW620 cells (K-Ras G12V) [3], 27.1 nM.

Regarding `C#Cc1c(F)ccc2cc(N)cc(-c3nc4c5c(nc(OC[C@@]67CCCN6C[C@H](F)C7)nc5c3F)N3CCCOC[C@H]3C4=C)c12` [Compound 21], the 50% inhibitory concentration (IC50) is 8.57 nM in the experiment on AGS cells (K-Ras G12D) [1], 43.5 nM in experiment [2] and 4.88 nM with SW620 cells (K-Ras G12V) [3].

As for `C#Cc1c(F)ccc2cc(N)cc(-c3nc4c5c(nc(OC[C@@]67CCCN6C[C@H](F)C7)nc5c3F)N3C(COCC[C@@H]3C)C4=C)c12` (stereo partly drawn) [Compound 128], the IC50 was found to be 10.8 nM in experiment [2] and 3.26 nM with SW620 cells (K-Ras G12V) [3].

Take `C#Cc1c(F)ccc2cc(N)cc(-c3nc4c5c(nc(OCC67CCCN6CC6(C7)CC6(F)F)nc5c3F)N3CCCOC[C@H]3CO4)c12` (stereo partly drawn) [Compound 25]: the IC50 was 51.6 nM with AGS cells (K-Ras G12D) [1], 232 nM in experiment [2] and 29.7 nM with SW620 cells (K-Ras G12V) [3].

Molecule `C[C@H]1CCOC[C@H]2COc3c(Cl)c(-c4ccc(F)c5sc(N)c(C#N)c45)c(F)c4nc(OC[C@@]56CCCN5C[C@H](F)C6)nc(c34)N21` [Compound 158] displayed an IC50 in the experiment with AGS cells (K-Ras G12D) [1] of 0.967 nM.

With `C#Cc1c(F)ccc2cc(N)cc(-c3nc4c5c(nc(OC[C@@]67CCCN6CC(=C)C7)nc5c3F)N3CCCOC[C@H]3CO4)c12` [Compound 7], the IC50 is 3.23 nM with AGS cells (K-Ras G12D) [1], 35.6 nM in experiment [2] and 2.53 nM in the experiment with SW620 cells (K-Ras G12V) [3].
